Assay results published in PubChem BioAssay (NCI).
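Test compounds were applied to cells in 96-well plates for 48 hours at 5 doses. At the GI50, growth is halved. TGI marks complete inhibition of growth.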

What was measured:
Assay in all cases: DTP human tumour cell line panel, 48 h
786-0 renal = system: 786-0 renal
A498 renal = system: A498 renal
A549 NSCLC = system: A549 NSCLC
ACHN renal = system: ACHN renal
BT-549 breast = system: BT-549 breast
CAKI-1 renal = system: CAKI-1 renal
CCRF-CEM leukemia = system: CCRF-CEM leukemia
COLO 205 colon = system: COLO 205 colon
DU-145 prostate = system: DU-145 prostate
EKVX NSCLC = system: EKVX NSCLC
HCC-2998 colon = system: HCC-2998 colon
HCT-116 colon = system: HCT-116 colon
HCT-15 colon = system: HCT-15 colon
HL-60(TB) leukemia = system: HL-60(TB) leukemia
HOP-62 NSCLC = system: HOP-62 NSCLC
HOP-92 NSCLC = system: HOP-92 NSCLC
HS 578T breast = system: HS 578T breast
HT29 colon = system: HT29 colon
IGROV1 ovarian = system: IGROV1 ovarian
K-562 leukemia = system: K-562 leukemia
KM12 colon = system: KM12 colon
LOX IMVI melanoma = system: LOX IMVI melanoma
M14 melanoma = system: M14 melanoma
MALME-3M melanoma = system: MALME-3M melanoma
MCF7 breast = system: MCF7 breast
MDA-MB-231 breast = system: MDA-MB-231 breast
MDA-MB-435 = system: MDA-MB-435
MDA-N = system: MDA-N
MOLT-4 leukemia = system: MOLT-4 leukemia
NCI-H226 lung = system: NCI-H226 lung
NCI-H23 lung = system: NCI-H23 lung
NCI-H322M lung = system: NCI-H322M lung
NCI-H460 lung = system: NCI-H460 lung
NCI-H522 lung = system: NCI-H522 lung
NCI/ADR-RES ovarian = system: NCI/ADR-RES ovarian
OVCAR-3 ovarian = system: OVCAR-3 ovarian
OVCAR-4 ovarian = system: OVCAR-4 ovarian
OVCAR-5 ovarian = system: OVCAR-5 ovarian
OVCAR-8 ovarian = system: OVCAR-8 ovarian
PC-3 prostate = system: PC-3 prostate
RPMI-8226 leukemia = system: RPMI-8226 leukemia
RXF 393 renal = system: RXF 393 renal
SF-268 CNS = system: SF-268 CNS
SF-295 CNS = system: SF-295 CNS
SF-539 CNS = system: SF-539 CNS
SK-MEL-2 melanoma = system: SK-MEL-2 melanoma
SK-MEL-28 melanoma = system: SK-MEL-28 melanoma
SK-MEL-5 melanoma = system: SK-MEL-5 melanoma
SK-OV-3 ovarian = system: SK-OV-3 ovarian
SN12C renal = system: SN12C renal
SNB-19 CNS = system: SNB-19 CNS
SNB-75 CNS = system: SNB-75 CNS
SR leukemia = system: SR leukemia
SW-620 colon = system: SW-620 colon
T-47D breast = system: T-47D breast
TK-10 renal = system: TK-10 renal
U251 CNS = system: U251 CNS
UACC-257 melanoma = system: UACC-257 melanoma
UACC-62 melanoma = system: UACC-62 melanoma
UO-31 renal = system: UO-31 renal

`CC(=O)Nc1ccc([As](=O)(O)O)cc1` gave a GI50 (786-0 renal) of over 100 µM, a TGI (786-0 renal) of over 100 µM and a GI50 (A498 renal) of over 100 µM. For the same compound, the TGI (A498 renal) was over 100 µM, the GI50 (A549 NSCLC) was over 100 µM and the TGI (A549 NSCLC) was over 100 µM. It also gave a GI50 (ACHN renal) of over 100 µM, a TGI (ACHN renal) of over 100 µM and a GI50 (BT-549 breast) of over 100 µM. For the same compound, the TGI (BT-549 breast) was over 100 µM, the GI50 (CAKI-1 renal) was over 100 µM and the TGI (CAKI-1 renal) was over 100 µM. The GI50 (CCRF-CEM leukemia) was over 100 µM, the TGI (CCRF-CEM leukemia) was over 100 µM and the GI50 (COLO 205 colon) was over 100 µM. The TGI (COLO 205 colon) was over 100 µM, the GI50 (DU-145 prostate) was over 100 µM and the TGI (DU-145 prostate) was over 100 µM. It also gave a GI50 (EKVX NSCLC) of over 100 µM, a TGI (EKVX NSCLC) of over 100 µM and a GI50 (HCC-2998 colon) of over 100 µM. It also gave a TGI (HCC-2998 colon) of over 100 µM, a GI50 (HCT-116 colon) of over 100 µM and a TGI (HCT-116 colon) of over 100 µM. It also gave a GI50 (HCT-15 colon) of over 100 µM, a TGI (HCT-15 colon) of over 100 µM and a GI50 (HL-60(TB) leukemia) of over 100 µM. It also gave a TGI (HL-60(TB) leukemia) of over 100 µM, a GI50 (HOP-62 NSCLC) of over 100 µM and a TGI (HOP-62 NSCLC) of over 100 µM. The GI50 (HOP-92 NSCLC) was over 100 µM, the TGI (HOP-92 NSCLC) was over 100 µM and the GI50 (HS 578T breast) was over 100 µM. The TGI (HS 578T breast) was over 100 µM, the GI50 (HT29 colon) was over 100 µM and the TGI (HT29 colon) was over 100 µM. The GI50 (IGROV1 ovarian) was over 100 µM, the TGI (IGROV1 ovarian) was over 100 µM and the GI50 (K-562 leukemia) was over 100 µM. For the same compound, the TGI (K-562 leukemia) was over 100 µM, the GI50 (KM12 colon) was over 100 µM and the TGI (KM12 colon) was over 100 µM. For the same compound, the GI50 (LOX IMVI melanoma) was over 100 µM, the TGI (LOX IMVI melanoma) was over 100 µM and the GI50 (M14 melanoma) was over 100 µM. It also gave a TGI (M14 melanoma) of over 100 µM, a GI50 (MALME-3M melanoma) of over 100 µM and a TGI (MALME-3M melanoma) of over 100 µM. For the same compound, the GI50 (MCF7 breast) was over 100 µM, the TGI (MCF7 breast) was over 100 µM and the GI50 (MDA-MB-231 breast) was over 100 µM. It also gave a TGI (MDA-MB-231 breast) of over 100 µM, a GI50 (MDA-MB-435) of over 100 µM and a TGI (MDA-MB-435) of over 100 µM. It also gave a GI50 (MDA-N) of over 100 µM, a TGI (MDA-N) of over 100 µM and a GI50 (MOLT-4 leukemia) of over 100 µM. For the same compound, the TGI (MOLT-4 leukemia) was over 100 µM, the GI50 (NCI-H226 lung) was over 100 µM and the TGI (NCI-H226 lung) was over 100 µM. It also gave a GI50 (NCI-H23 lung) of over 100 µM, a TGI (NCI-H23 lung) of over 100 µM and a GI50 (NCI-H322M lung) of over 100 µM. It also gave a TGI (NCI-H322M lung) of over 100 µM, a GI50 (NCI-H460 lung) of over 100 µM and a TGI (NCI-H460 lung) of over 100 µM. It also gave a GI50 (NCI-H522 lung) of over 100 µM, a TGI (NCI-H522 lung) of over 100 µM and a GI50 (NCI/ADR-RES ovarian) of over 100 µM. It also gave a TGI (NCI/ADR-RES ovarian) of over 100 µM, a GI50 (OVCAR-3 ovarian) of over 100 µM and a TGI (OVCAR-3 ovarian) of over 100 µM. For the same compound, the GI50 (OVCAR-4 ovarian) was over 100 µM, the TGI (OVCAR-4 ovarian) was over 100 µM and the GI50 (OVCAR-5 ovarian) was over 100 µM. The TGI (OVCAR-5 ovarian) was over 100 µM, the GI50 (OVCAR-8 ovarian) was over 100 µM and the TGI (OVCAR-8 ovarian) was over 100 µM. It also gave a GI50 (PC-3 prostate) of over 100 µM, a TGI (PC-3 prostate) of over 100 µM and a GI50 (RPMI-8226 leukemia) of over 100 µM. It also gave a TGI (RPMI-8226 leukemia) of over 100 µM, a GI50 (RXF 393 renal) of over 100 µM and a TGI (RXF 393 renal) of over 100 µM. The GI50 (SF-268 CNS) was over 100 µM, the TGI (SF-268 CNS) was over 100 µM and the GI50 (SF-295 CNS) was over 100 µM. For the same compound, the TGI (SF-295 CNS) was over 100 µM, the GI50 (SF-539 CNS) was over 100 µM and the TGI (SF-539 CNS) was over 100 µM. The GI50 (SK-MEL-2 melanoma) was over 100 µM, the TGI (SK-MEL-2 melanoma) was over 100 µM and the GI50 (SK-MEL-28 melanoma) was over 100 µM. It also gave a TGI (SK-MEL-28 melanoma) of over 100 µM, a GI50 (SK-MEL-5 melanoma) of over 100 µM and a TGI (SK-MEL-5 melanoma) of over 100 µM. It also gave a GI50 (SK-OV-3 ovarian) of over 100 µM, a TGI (SK-OV-3 ovarian) of over 100 µM and a GI50 (SN12C renal) of over 100 µM. The TGI (SN12C renal) was over 100 µM, the GI50 (SNB-19 CNS) was over 100 µM and the TGI (SNB-19 CNS) was over 100 µM. For the same compound, the GI50 (SNB-75 CNS) was over 100 µM, the TGI (SNB-75 CNS) was over 100 µM and the GI50 (SR leukemia) was over 100 µM. It also gave a TGI (SR leukemia) of over 100 µM, a GI50 (SW-620 colon) of over 100 µM and a TGI (SW-620 colon) of over 100 µM. For the same compound, the GI50 (T-47D breast) was over 100 µM, the TGI (T-47D breast) was over 100 µM and the GI50 (TK-10 renal) was over 100 µM. It also gave a TGI (TK-10 renal) of over 100 µM, a GI50 (U251 CNS) of over 100 µM and a TGI (U251 CNS) of over 100 µM. It also gave a GI50 (UACC-257 melanoma) of over 100 µM, a TGI (UACC-257 melanoma) of over 100 µM and a GI50 (UACC-62 melanoma) of over 100 µM. For the same compound, the TGI (UACC-62 melanoma) was over 100 µM, the GI50 (UO-31 renal) was over 100 µM and the TGI (UO-31 renal) was over 100 µM.
